The numbers were not newly measured in publication PMC4955782 (Archives of biochemistry and biophysics, 2016), which cites them from elsewhere.

The subject of the data set is tubulin. As to conditions: reported by David et al.; cited from earlier work.

Take `COc1cc2c(c(OC)c1OC)-c1ccc(OC)c(=O)cc1[C@@H](NC(C)=O)CC2` [colchicine]: the “inhibition of (−)-rhazinilam aberrant assembly reaction” value was “but not colchicine, inhibited”.
